Inhibition data for 3 compounds are collected here from PubChem BioAssay AID1852 (Sanford-Burnham Center for Chemical Genomics, 2009).

The entries are a selection whose mix differs from that of the whole data set. Activity calls are given as the source filed them.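 The calls were made as follows: active = inhibition above 50% at 4 µM in the single-point screen; inactive = inhibition of 50% or less.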

This assay is described as follows: blockers of TNF-a NF-kB luciferase induction – cell-based, HEK293T NF-kB-Luc, luminescence, selectivity assay for NOD1/NOD2 signaling inhibitor project, primary screen (AID 1852). The conditions noted are these: TNF-a induced, 14 h, at 4 µM, hits give high values.
Broadly, the inhibition is the change of the read-out against control, counted positive when it falls. As for `O=[N+]([O-])c1ccc(O)c(/C=N/Nc2ccc([N+](=O)[O-])cc2[N+](=O)[O-])c1`, the inhibition is active: 110%. Then `O=c1c2cc([N+](=O)[O-])ccc2[nH]c2c([N+](=O)[O-])cc([N+](=O)[O-])cc12`, with active: 77.2%.

For `C[N+]1=C2C=CC=CC=C2SC12C([N+](=O)[O-])=CC([N+](=O)[O-])=C[C-]2[N+](=O)[O-]` (stereo not drawn), the inhibition was active: 103%.
